The values that follow come from patent publication US11246958B2, “Haemostatic compositions” (HAEMOSTATIX LIMITED, priority 2015, dated 2022).

Test [1] concerns the target T1, fibrinogen in human plasma (Homo sapiens, UniProt P02675+P02679).
T1 construct: from tissue; host or cells: human plasma
T1 sequence (P02679 27-437 isoform P02679-2 limits assumed): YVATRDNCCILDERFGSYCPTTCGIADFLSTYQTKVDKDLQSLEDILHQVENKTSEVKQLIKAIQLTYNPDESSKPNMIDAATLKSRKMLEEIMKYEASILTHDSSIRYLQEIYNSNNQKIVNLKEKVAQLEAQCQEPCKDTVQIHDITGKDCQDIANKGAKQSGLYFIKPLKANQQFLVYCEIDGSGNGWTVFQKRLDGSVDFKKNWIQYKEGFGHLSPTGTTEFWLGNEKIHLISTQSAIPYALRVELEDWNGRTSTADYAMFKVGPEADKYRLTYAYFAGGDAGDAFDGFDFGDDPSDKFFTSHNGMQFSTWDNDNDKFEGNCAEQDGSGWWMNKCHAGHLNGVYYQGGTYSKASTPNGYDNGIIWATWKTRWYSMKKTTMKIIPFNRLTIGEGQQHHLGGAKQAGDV
T1 sequence (P02675 31-491): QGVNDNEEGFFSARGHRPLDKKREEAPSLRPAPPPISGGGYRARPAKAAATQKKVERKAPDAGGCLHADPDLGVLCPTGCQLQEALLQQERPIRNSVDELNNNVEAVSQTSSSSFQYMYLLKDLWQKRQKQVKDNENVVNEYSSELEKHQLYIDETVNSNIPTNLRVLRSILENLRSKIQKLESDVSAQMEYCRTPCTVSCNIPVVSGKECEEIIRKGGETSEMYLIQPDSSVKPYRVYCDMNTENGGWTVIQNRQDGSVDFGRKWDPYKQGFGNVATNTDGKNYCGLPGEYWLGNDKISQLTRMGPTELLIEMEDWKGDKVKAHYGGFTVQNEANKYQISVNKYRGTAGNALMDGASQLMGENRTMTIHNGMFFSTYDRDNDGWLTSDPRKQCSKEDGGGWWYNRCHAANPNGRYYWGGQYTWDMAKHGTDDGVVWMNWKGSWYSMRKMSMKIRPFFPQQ
T1 sequence (P02671 20-629 partner limits assumed): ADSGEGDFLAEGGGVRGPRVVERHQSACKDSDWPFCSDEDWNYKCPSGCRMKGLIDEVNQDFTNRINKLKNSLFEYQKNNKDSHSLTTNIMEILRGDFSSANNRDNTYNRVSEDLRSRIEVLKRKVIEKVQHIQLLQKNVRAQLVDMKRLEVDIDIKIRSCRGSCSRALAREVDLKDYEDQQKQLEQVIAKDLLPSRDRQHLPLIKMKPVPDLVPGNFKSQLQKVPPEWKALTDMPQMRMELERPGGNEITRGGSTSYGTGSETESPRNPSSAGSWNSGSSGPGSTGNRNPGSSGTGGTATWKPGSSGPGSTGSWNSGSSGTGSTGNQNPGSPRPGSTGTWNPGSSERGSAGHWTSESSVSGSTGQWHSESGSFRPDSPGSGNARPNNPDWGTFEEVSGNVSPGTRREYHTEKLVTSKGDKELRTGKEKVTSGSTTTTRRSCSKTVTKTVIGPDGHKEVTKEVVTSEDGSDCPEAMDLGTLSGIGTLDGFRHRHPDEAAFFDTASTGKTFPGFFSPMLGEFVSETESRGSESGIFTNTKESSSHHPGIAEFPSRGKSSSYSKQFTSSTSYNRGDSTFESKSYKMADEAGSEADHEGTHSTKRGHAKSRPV
The test is described as follows: Polymerisation of fibrinogen in human plasma by peptide dendrimers. It counts as biochemical. The note with it: 30 μL dendrimer 0.25 mg/ml in 100 μL human plasma, 37° C. How it is done:
30 μL of each dendrimer (at a concentration of 0.25 mg/ml) was added to 100 μL human plasma at 37° C., and polymerisation of fibrinogen was determined using a Sigma Amelung KC4 Delta coagulation analyzer.

Test [2] has as its target T2, purified human fibrinogen (Homo sapiens, UniProt P02675+P02679).
T2 sequence (P02679 27-437 isoform P02679-2 limits assumed): T1 sequence (P02679 27-437 isoform P02679-2 limits assumed)
T2 sequence (P02675 31-491): T1 sequence (P02675 31-491)
T2 sequence (P02671 20-629 partner limits assumed): T1 sequence (P02671 20-629 partner limits assumed)
The test is described as follows: Copolymerisation of peptide dendrimers with purified human fibrinogen, clotting time on KC4 Delta coagulation analyser. The class given is biochemical. The note with it: dendrimer below ~0.125 mg/ml, fibrinogen 3 mg/ml. Here is the method:
The ability of Peptide Dendrimer No. 12 to polymerise fibrinogen was assessed. 30 μl of dendrimer in solution, at concentration ranging from 0.005-2 mg/ml, was added to 100 μl purified human fibrinogen at 3 mg/ml (the level of fibrinogen found in the blood). Polymerisation of fibrinogen was analysed using a Sigma Amelung KC4 Delta coagulation analyser.
The ability of Peptide Dendrimer Nos. 4, 5, 10, 11, and 12 to copolymerise with fibrinogen was assessed using the same method described in Example 2. The concentration of each dendrimer was varied from 0.005-0.5 mg/ml.
The ability of the dendrimers to copolymerise with fibrinogen was assessed using the same method described in Example 2, for a concentration of each dendrimer ranging from 0.005-0.5 mg/ml.
Peptide Conjugate No. 1 or 2 (2 mg/ml) was mixed with Peptide Dendrimer No. 3 or 4, and fibrinogen, and the ability of the mixtures to copolymerise with fibrinogen was assessed using the same method described in Example 2, for a concentration of each dendrimer ranging from 0.025-0.5 mg/ml.

As for “Peptide Dendrimer No. 10: three-branch dendrimer, three GPRPG peptides each attached by its carboxy-terminal end to the branched core”, the “ability to polymerise fibrinogen in human plasma” value in test [1] is reported as “able to polymerise fibrinogen in human plasma”. Further, the clotting times result in test [2] is reported as “faster clotting times than dendrimer no. 4”.
